Article PMC6379965, “Expression and activity of the calcitonin receptor family in a sample of primary human high-grade gliomas” (BMC Cancer, 2019)

Tests used:
AM2 (CLR + RAMP3) = test system: AM2 (CLR + RAMP3); parameters: method as in PMID 9620797, PMID 19497285; settings: receptor AM2, CLR + RAMP3; ref [10], [11], [38]; cited from earlier work
CTR = test system: CTR; parameters: method as in PMID 9620797, PMID 19497285; settings: receptor CTR; ref [10], [11], [38]; cited from earlier work
SB2b cell line = test: cAMP accumulation, αCGRP and AM, SB2b; type: cell-based, human; settings: 30 min, 3 to 4 independent experiments in triplicate
Procedure: Primary patient high-grade glioma (HGG) cell lines, in vitro surrogates of glioblastoma, were developed by QIMR-Berghofer Medical Research Institute (Brisbane, Australia) and represent 3 distinct GBM subtypes: SB2b and PB1 (classical), JK2 (proneural) and WK1(mesenchymal), who supplied these directly for this study. GBM cell lines were cultured as adherent monolayers on matrigel (BD Biosciences)-coated flasks using StemPro NSC SFM serum free cell culture medium (Thermo Fisher Scientific) supplemented with 20 ng/ml EGF and 20 ng/ml FGFb, 1% D-glutamine and 1% of penicillin/ streptomycin (further referred as StemPro complete medium). Cells were cultured in 5% CO2 / 95% humidified air at 37 °C.
GBM cell lines were seeded at 38000 cells/well (SB2b) or 35,000 cells/well (PB1, JK2 and WK1) in 96-well matrigel-coated plates and incubated for 24 h at 37°C, 5% CO2 in humidified incubator in StemPro complete medium. Media was replaced with stimulation buffer (phenol red free F12 media, 0.1% BSA, 0.5 mM IBMX, pH 7.4). […] Intracellular cAMP levels in the wells were determined using Lance Ultra cAMP assay kit (Perkin Elmer) according to the manufacturer’s instructions and detected using an Envision multilabel 2103 reader. […] Data were analysed by three-parameter logistic curve and are presented as percentage of 10^− 5 M forskolin response.

AM1 (CLR + RAMP2) = test system: AM1 (CLR + RAMP2); parameters: method as in PMID 9620797, PMID 19497285; settings: receptor AM1, CLR + RAMP2; ref [10], [11], [38]; cited from earlier work
CGRP (CLR + RAMP1) = test system: CGRP (CLR + RAMP1); parameters: method as in PMID 9620797, PMID 19497285; settings: receptor CGRP, ref [10], [11], [38]; cited from earlier work
AMY3 (CTR + RAMP3) = test system: AMY3 (CTR + RAMP3); parameters: method as in PMID 9620797, PMID 19497285; settings: receptor AMY3, CTR + RAMP3; ref [10], [11], [38]; cited from earlier work
AMY1 (CTR + RAMP1) = test system: AMY1 (CTR + RAMP1); parameters: method as in PMID 9620797, PMID 19497285; settings: receptor AMY1, CTR + RAMP1; ref [10], [11], [38]; cited from earlier work

CC(C)C[C@H](NC(=O)CNC(=O)[C@H](C)NC(=O)[C@H](CC(C)C)NC(=O)[C@H](CCCNC(=N)N)NC(=O)[C@H](Cc1c[nH]cn1)NC(=O)[C@@H](NC(=O)[C@@H](NC(=O)[C@@H]1CSSC[C@H](NC(=O)[C@H](C)N)C(=O)N[C@@H](CC(=O)O)C(=O)N[C@@H]([C@@H](C)O)C(=O)N[C@@H](C)C(=O)N[C@@H]([C@@H](C)O)C(=O)N1)C(C)C)[C@@H](C)O)C(=O)N[C@@H](CC(C)C)C(=O)N[C@@H](CO)C(=O)N[C@@H](CCCNC(=N)N)C(=O)N[C@@H](CO)C(=O)NCC(=O)NCC(=O)N[C@H](C(=O)N[C@H](C(=O)N[C@@H](CCCCN)C(=O)N[C@@H](CC(N)=O)C(=O)N[C@@H](CC(N)=O)C(=O)N[C@@H](Cc1ccccc1)C(=O)N[C@H](C(=O)N1CCC[C@H]1C(=O)N[C@H](C(=O)N[C@@H](CC(N)=O)C(=O)N[C@H](C(=O)NCC(=O)N[C@@H](CO)C(=O)N[C@@H](CCCCN)C(=O)N[C@@H](C)C(=O)N[C@@H](Cc1ccccc1)C(N)=O)C(C)C)[C@@H](C)O)C(C)C)C(C)C)C(C)C [αCGRP, Calcitonin gene related peptide]
Peptides rank order of potency (human) (AM2 (CLR + RAMP3)): AM ≥ intermedin ≥ α-CGRP > AMY > SCT | Peptides rank order of potency (human) (CTR): sCT ≥ hCT > AMY, αCGRP > AM, intermedin | cAMP response to αCGRP, adrenomedullin (and weak amylin response) (SB2b cell line): Weak responses | Peptides rank order of potency (human) (AM1 (CLR + RAMP2)): AM > intermedin > α-CGRP, AMY > sCT | Peptides rank order of potency (human) (CGRP (CLR + RAMP1)): αCGRP > AM ≥ intermedin > AMY ≥ sCT | Peptides rank order of potency (human) (AMY3 (CTR + RAMP3)): sCT ≥ AMY > αCGRP > intermedin ≥ hCT > AM | Peptides rank order of potency (human) (AMY1 (CTR + RAMP1)): sCT ≥ AMY ≥ αCGRP > intermedin ≥ hCT > AM
